In the test the target is T1, Knl1c:Mis12c^Mtw1c complex K^HB-RWDM^Dsn1Δ257 (Knl1^Spc105 residues 1–444 and Dsn1 residues 1–257 deleted) (S. cerevisiae, UniProt P53148 445-917; Q04431 1-385; P40568 258-576; P39731 1-289; P47149 1-201; …).
T1 construct: Knl1^Spc105_HB-RWD: Knl1^Spc105, S. cerevisiae S288c, residues 445-917; ZWINT^Kre28, S. cerevisiae S288c; no truncation stated; Mis12^Mtw1, S. cerevisiae S288c; wild-type, no truncation stated; Nnf1, S. cerevisiae S288c; Nsl1, S. cerevisiae S288c; source: High-5 insect cells (two baculoviruses), purified (Strep-Tactin, SEC); copies: + + + + +
As to the kind of experiment: ITC.

PHYIQRTRERKKEIGSQRGRRLEMLASGSAW (N-terminal acetylation; C-terminal amidation) [Dsn1^228–254,S240E,S250E peptide]: the Kd worked out at 6 µM.

These data come from publication PMC13065467, “Assembly and phosphoregulatory mechanisms of the budding yeast outer kinetochore KMN complex” (The Journal of Cell Biology, 2026).
